This is an account of results in paper PMC9851200, “Multiparameter phenotypic screening for endogenous TFEB and TFE3 translocation identifies novel chemical series modulating lysosome function” (Autophagy, 2022).

Sequences of proteins named here, by UniProt entry; tags and fusion partners are left off.
UniProt Q15418, whole entry: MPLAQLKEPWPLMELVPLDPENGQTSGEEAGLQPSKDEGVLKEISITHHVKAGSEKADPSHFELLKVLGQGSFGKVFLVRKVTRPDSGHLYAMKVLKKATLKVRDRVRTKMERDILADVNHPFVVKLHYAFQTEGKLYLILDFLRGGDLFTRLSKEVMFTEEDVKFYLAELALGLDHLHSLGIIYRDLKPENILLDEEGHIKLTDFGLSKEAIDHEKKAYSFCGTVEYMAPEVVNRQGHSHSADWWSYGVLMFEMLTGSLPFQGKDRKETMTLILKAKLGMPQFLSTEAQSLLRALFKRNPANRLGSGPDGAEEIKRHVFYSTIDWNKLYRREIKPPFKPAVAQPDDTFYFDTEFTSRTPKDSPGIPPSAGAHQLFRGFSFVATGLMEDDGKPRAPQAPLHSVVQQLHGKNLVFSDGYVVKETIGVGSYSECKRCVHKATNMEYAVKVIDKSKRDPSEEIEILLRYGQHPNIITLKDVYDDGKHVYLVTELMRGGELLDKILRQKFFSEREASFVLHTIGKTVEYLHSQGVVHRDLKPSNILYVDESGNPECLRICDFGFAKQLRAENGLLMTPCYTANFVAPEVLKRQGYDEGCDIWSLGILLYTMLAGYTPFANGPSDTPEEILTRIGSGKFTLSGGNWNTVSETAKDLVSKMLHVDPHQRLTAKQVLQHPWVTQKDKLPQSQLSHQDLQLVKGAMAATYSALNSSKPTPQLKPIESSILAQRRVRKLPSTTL
UniProt Q15349, whole entry: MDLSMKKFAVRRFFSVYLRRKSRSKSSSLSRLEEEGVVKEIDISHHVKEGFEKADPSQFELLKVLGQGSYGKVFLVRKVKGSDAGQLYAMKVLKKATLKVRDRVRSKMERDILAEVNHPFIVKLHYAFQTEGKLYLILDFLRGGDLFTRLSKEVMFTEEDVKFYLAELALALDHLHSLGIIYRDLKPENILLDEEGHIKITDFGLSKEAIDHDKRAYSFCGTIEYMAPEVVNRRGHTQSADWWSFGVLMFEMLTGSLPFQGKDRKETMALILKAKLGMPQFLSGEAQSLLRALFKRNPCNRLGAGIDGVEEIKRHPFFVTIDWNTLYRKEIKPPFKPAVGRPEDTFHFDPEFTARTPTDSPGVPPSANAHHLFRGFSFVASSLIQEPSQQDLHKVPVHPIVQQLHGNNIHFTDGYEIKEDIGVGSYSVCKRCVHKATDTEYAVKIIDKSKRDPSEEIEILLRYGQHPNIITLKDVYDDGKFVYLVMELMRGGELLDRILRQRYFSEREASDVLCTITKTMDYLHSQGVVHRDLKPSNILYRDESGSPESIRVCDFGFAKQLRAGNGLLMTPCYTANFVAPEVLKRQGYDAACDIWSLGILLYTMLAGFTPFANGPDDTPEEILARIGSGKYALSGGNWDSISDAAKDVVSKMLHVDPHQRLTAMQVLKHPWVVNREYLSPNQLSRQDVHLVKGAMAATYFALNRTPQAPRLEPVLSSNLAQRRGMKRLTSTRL
UniProt P51812, whole entry: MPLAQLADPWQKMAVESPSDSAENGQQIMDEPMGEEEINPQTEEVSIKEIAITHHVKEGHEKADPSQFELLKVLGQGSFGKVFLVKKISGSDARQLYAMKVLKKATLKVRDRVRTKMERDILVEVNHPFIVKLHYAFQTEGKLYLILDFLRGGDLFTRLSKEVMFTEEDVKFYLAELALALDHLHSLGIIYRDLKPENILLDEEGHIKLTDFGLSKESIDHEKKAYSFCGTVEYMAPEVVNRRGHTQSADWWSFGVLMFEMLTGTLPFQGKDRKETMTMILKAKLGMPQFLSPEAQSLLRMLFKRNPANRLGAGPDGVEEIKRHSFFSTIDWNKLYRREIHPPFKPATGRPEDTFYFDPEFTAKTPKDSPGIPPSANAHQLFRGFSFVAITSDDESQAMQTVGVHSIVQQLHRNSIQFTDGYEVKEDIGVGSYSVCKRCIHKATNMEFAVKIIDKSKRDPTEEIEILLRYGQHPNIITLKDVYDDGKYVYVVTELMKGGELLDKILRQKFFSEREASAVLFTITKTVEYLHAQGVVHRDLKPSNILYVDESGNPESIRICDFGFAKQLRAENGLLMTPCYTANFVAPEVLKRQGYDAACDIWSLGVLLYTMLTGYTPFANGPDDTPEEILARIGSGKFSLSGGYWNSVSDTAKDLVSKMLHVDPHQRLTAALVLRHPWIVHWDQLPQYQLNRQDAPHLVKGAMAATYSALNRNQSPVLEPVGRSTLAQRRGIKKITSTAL
UniProt Q9UK32, whole entry: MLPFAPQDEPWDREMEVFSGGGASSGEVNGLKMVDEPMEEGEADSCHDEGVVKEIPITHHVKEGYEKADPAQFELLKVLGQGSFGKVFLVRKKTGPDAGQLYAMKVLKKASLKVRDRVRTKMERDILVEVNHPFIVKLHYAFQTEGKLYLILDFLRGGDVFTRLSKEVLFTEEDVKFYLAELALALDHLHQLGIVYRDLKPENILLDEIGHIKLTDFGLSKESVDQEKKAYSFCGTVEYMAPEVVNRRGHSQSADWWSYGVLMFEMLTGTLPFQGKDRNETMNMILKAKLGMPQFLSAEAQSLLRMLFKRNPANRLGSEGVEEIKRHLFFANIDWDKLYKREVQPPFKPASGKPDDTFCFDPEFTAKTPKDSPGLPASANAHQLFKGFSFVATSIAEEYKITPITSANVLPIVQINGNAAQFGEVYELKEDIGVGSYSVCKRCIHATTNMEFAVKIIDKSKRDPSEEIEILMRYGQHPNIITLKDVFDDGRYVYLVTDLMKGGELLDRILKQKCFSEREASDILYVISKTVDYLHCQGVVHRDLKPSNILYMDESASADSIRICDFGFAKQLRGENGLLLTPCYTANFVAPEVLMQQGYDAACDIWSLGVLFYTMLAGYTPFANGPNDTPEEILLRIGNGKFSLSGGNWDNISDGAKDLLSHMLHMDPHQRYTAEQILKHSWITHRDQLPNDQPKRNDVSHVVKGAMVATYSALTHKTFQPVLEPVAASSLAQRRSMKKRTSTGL
UniProt Q15759, whole entry: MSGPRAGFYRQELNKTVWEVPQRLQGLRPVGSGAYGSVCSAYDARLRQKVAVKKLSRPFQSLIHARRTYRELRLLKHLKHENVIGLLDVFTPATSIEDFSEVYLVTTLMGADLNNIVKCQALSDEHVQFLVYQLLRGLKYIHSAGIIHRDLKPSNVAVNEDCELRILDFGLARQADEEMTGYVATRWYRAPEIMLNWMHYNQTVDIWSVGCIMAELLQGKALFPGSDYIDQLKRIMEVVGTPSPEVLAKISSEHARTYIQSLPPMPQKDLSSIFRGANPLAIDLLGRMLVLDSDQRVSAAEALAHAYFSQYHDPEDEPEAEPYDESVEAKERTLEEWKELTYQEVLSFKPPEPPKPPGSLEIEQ
UniProt Q16539, whole entry: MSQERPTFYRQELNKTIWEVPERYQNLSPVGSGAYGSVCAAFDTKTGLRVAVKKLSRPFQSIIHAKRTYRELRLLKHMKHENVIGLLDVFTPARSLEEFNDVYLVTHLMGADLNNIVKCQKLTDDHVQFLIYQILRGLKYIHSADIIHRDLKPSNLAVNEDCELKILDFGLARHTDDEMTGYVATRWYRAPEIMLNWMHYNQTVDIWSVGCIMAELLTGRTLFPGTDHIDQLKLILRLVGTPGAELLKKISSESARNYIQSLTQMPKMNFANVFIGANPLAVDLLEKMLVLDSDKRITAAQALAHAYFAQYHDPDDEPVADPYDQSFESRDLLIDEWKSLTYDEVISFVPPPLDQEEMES

pKd: −log10 of the molar value. Like-named read-outs stand apart in the source and are kept apart here. A value given as a limit tells only on which side of the number the result lay.

The target in assay [1] is T1, kinases (KINOMEscan panel) (Homo sapiens, UniProt Q15418). The assay is classed as binding.
Assay [2] deals with T2, kinases (KINOMEscan panel) (Homo sapiens, UniProt Q15349). The class given is binding.
In assay [3] the target is T3, kinases (KINOMEscan panel) (Homo sapiens, UniProt P51812). The class given is binding.
For assay [4], the target named is T4, kinases (KINOMEscan panel) (Homo sapiens, UniProt Q9UK32). The assay is classed as binding.
The target of assay [5] is T1, kinases (KINOMEscan panel). The arrangement: method as in original PKIS2 published data. As to conditions: cited from earlier work.
For assay [6], the target named is T2, kinases (KINOMEscan panel). Also on record: method as in original PKIS2 published data. As to conditions: cited from earlier work.
Assay [7] deals with T3, kinases (KINOMEscan panel). Also on record: method as in original PKIS2 published data. The settings on record: cited from earlier work.
Assay [8] has as its target T4, kinases (KINOMEscan panel). The arrangement: method as in original PKIS2 published data. The settings on record: cited from earlier work.
The target in the next assay is T5, TGFBR1 (Homo sapiens, UniProt P36897).
T5 sequence (P36897 34-503): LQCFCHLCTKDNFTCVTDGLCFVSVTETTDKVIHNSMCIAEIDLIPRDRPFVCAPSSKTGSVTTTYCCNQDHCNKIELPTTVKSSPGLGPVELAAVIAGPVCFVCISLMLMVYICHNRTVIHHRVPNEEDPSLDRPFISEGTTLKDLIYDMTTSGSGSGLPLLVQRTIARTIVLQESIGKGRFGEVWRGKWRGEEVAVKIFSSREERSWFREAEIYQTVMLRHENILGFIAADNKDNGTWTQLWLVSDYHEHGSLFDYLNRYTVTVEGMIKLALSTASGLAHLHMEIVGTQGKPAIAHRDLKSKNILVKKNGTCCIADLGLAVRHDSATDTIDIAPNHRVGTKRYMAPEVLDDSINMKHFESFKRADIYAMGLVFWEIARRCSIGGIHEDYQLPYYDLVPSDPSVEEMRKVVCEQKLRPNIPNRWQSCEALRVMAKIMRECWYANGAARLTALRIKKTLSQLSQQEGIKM
The assay can be described thus: TGFBR1 binding KD (Table S3).

Assay [9] has as its target T6, cellular kinases of SH-SY5Y cells (Homo sapiens, UniProt P52564).
T6 sequence (P52564 1-334): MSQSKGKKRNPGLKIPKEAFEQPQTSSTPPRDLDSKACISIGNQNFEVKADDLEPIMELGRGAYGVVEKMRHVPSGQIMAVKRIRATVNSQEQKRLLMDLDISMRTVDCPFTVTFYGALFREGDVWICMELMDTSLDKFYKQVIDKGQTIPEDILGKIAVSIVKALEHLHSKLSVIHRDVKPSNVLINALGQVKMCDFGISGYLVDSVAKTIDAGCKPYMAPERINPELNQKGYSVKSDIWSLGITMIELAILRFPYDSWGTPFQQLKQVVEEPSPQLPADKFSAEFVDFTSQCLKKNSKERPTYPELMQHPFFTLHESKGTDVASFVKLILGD
The class given is binding.

Assay [10] has as its target cellular kinases of SH-SY5Y cells (Homo sapiens, UniProt P24941). The class given is binding.
The target of assay [11] is cellular kinases of SH-SY5Y cells (Homo sapiens, UniProt Q15759). The assay is classed as binding.
Assay [12] has as its target cellular kinases of SH-SY5Y cells (Homo sapiens, UniProt Q16539). The class given is binding.

For `Cc1cccc(-c2nc(Nc3ccc4scnc4c3)c3ccccc3n2)n1` [NK163], in assay [1], the “KINOMEscan RPS6KA1/RSK1(Kin.Dom.1-N-terminal)” value is 14 and the “KINOMEscan RPS6KA1/RSK1(Kin.Dom.2-C-terminal)” value is reported as 2. In [2], the “KINOMEscan RPS6KA2/RSK3(Kin.Dom.1-N-terminal)” value worked out at 6 and the “KINOMEscan RPS6KA2/RSK3(Kin.Dom.2-C-terminal)” value turned out to be 28. Also, in [3], the “KINOMEscan RPS6KA3/RSK2(Kin.Dom.1-N-terminal)” value came to 26 and the “KINOMEscan RPS6KA3/RSK2(Kin.Dom.2-C-terminal)” value was found to be 15. In addition, in assay [4], the “KINOMEscan RPS6KA6/RSK4(Kin.Dom.1-N-terminal)” value stood at 0 and the “KINOMEscan RPS6KA6/RSK4(Kin.Dom.2-C-terminal)” value worked out at 0.
For the compound `Cc1cccc(-c2nc(Nc3ccc4c(cnn4C)c3)c3ccccc3n2)n1` [NK166], in assay [5], the “KINOMEscan RPS6KA1/RSK1(Kin.Dom.1-N-terminal)” value was 32 and the “KINOMEscan RPS6KA1/RSK1(Kin.Dom.2-C-terminal)” value is given as 0. In assay [6], the “KINOMEscan RPS6KA2/RSK3(Kin.Dom.1-N-terminal)” value is given as 24 and the “KINOMEscan RPS6KA2/RSK3(Kin.Dom.2-C-terminal)” value was 0. For the same compound, in assay [7], the “KINOMEscan RPS6KA3/RSK2(Kin.Dom.1-N-terminal)” value is 26 and the “KINOMEscan RPS6KA3/RSK2(Kin.Dom.2-C-terminal)” value is on record as 0. Further, in [8], the “KINOMEscan RPS6KA6/RSK4(Kin.Dom.1-N-terminal)” value is reported as 8 and the “KINOMEscan RPS6KA6/RSK4(Kin.Dom.2-C-terminal)” value is reported as 0.
As to `Cc1cccc(-c2nc(Nc3ccc4nn(C)cc4c3)c3ccccc3n2)n1` [NK167], in [1], the “KINOMEscan RPS6KA1/RSK1(Kin.Dom.1-N-terminal)” value is recorded as 20 and the “KINOMEscan RPS6KA1/RSK1(Kin.Dom.2-C-terminal)” value was 35. Besides, in [2], the “KINOMEscan RPS6KA2/RSK3(Kin.Dom.1-N-terminal)” value worked out at 0 and the “KINOMEscan RPS6KA2/RSK3(Kin.Dom.2-C-terminal)” value is on record as 3. Further, in assay [3], the “KINOMEscan RPS6KA3/RSK2(Kin.Dom.1-N-terminal)” value was 0 and the “KINOMEscan RPS6KA3/RSK2(Kin.Dom.2-C-terminal)” value came out at 9. For the same compound, in assay [4], the “KINOMEscan RPS6KA6/RSK4(Kin.Dom.1-N-terminal)” value is given as 26 and the “KINOMEscan RPS6KA6/RSK4(Kin.Dom.2-C-terminal)” value stood at 5. At TGFBR1, the pKd was less than 5.00.
With `Cc1cccc(-c2nc(Nc3ccc4occc4c3)c3ccccc3n2)n1` [NK168], in assay [1], the “KINOMEscan RPS6KA1/RSK1(Kin.Dom.1-N-terminal)” value worked out at 0 and the “KINOMEscan RPS6KA1/RSK1(Kin.Dom.2-C-terminal)” value worked out at 44. In addition, in assay [2], the “KINOMEscan RPS6KA2/RSK3(Kin.Dom.1-N-terminal)” value was 0 and the “KINOMEscan RPS6KA2/RSK3(Kin.Dom.2-C-terminal)” value is recorded as 21. In [3], the “KINOMEscan RPS6KA3/RSK2(Kin.Dom.1-N-terminal)” value stood at 0 and the “KINOMEscan RPS6KA3/RSK2(Kin.Dom.2-C-terminal)” value is reported as 23. Moreover, in assay [4], the “KINOMEscan RPS6KA6/RSK4(Kin.Dom.1-N-terminal)” value is given as 0 and the “KINOMEscan RPS6KA6/RSK4(Kin.Dom.2-C-terminal)” value is given as 3.
On to `Cc1cccc(-c2nc(Nc3ccc4ncccc4c3)c3ccccc3n2)n1` [NK177], for which the “KiNativ in-cell binding, MAP2K6” value in [9] is on record as -46.5. In addition, the “KiNativ in-cell binding, CDK2” value in assay [10] is -46.5. The “KiNativ in-cell binding, MAPK11/p38b” value in [11] was 11.8. For the same compound, the “KiNativ in-cell binding, MAPK14/p38a” value in assay [12] is listed as 7.5.
With `Cc1cccc(-c2nc(Nc3ccc4c(c3)nnn4C)c3ccccc3n2)n1` [NK221], in [1], the “KINOMEscan RPS6KA1/RSK1(Kin.Dom.1-N-terminal)” value stood at 0 and the “KINOMEscan RPS6KA1/RSK1(Kin.Dom.2-C-terminal)” value was 60. Besides, in assay [2], the “KINOMEscan RPS6KA2/RSK3(Kin.Dom.1-N-terminal)” value worked out at 1 and the “KINOMEscan RPS6KA2/RSK3(Kin.Dom.2-C-terminal)” value turned out to be 25. For the same compound, in [3], the “KINOMEscan RPS6KA3/RSK2(Kin.Dom.1-N-terminal)” value was determined as 0 and the “KINOMEscan RPS6KA3/RSK2(Kin.Dom.2-C-terminal)” value was found to be 27. Moreover, in assay [4], the “KINOMEscan RPS6KA6/RSK4(Kin.Dom.1-N-terminal)” value stood at 16 and the “KINOMEscan RPS6KA6/RSK4(Kin.Dom.2-C-terminal)” value is on record as 16.
Consider `Cc1cccc(-c2nc(Nc3ccc4[nH]nnc4c3)c3ccccc3n2)n1` [NK224], for which, in [5], the “KINOMEscan RPS6KA1/RSK1(Kin.Dom.1-N-terminal)” value was 0 and the “KINOMEscan RPS6KA1/RSK1(Kin.Dom.2-C-terminal)” value is given as 16. Also, in assay [6], the “KINOMEscan RPS6KA2/RSK3(Kin.Dom.1-N-terminal)” value was 0 and the “KINOMEscan RPS6KA2/RSK3(Kin.Dom.2-C-terminal)” value was 12. In addition, in [7], the “KINOMEscan RPS6KA3/RSK2(Kin.Dom.1-N-terminal)” value is recorded as 12 and the “KINOMEscan RPS6KA3/RSK2(Kin.Dom.2-C-terminal)” value was 0. For the same compound, in [8], the “KINOMEscan RPS6KA6/RSK4(Kin.Dom.1-N-terminal)” value is listed as 0 and the “KINOMEscan RPS6KA6/RSK4(Kin.Dom.2-C-terminal)” value is on record as 0.
